Measured values reported in paper PMC3074252 (Journal of medicinal chemistry, 2011).

System: PC12 cells expressing G93A SOD1-YFP
Format: cell-based

Row | SMILES | activity in cytotoxicity protection assay
1 | CC1C(=O)N(CCc2ccccc2)C(=O)N(CCc2ccccc2)C1=O [Compound 37, 5-Methyl-1,3-diphenethylpyrimidine-2,4,6(1H,3H,5H)-trione] | no activity
2 | CC1(C)C(=O)N(CCc2ccccc2)C(=O)N(CCc2ccccc2)C1=O [Compound 38, 5,5-Dimethyl-1,3-diphenethylpyrimidine-2,4,6(1H,3H,5H)-trione] | no activity
3 | O=C1C(=CC2CCCCC2)C(=O)N(CCc2ccccc2)C(=O)N1CCc1ccccc1 [Compound 39, 5-(Cyclohexylmethylene)-1,3-diphenethylpyrimidine-2,4,6(1H,3H,5H)-trione] | devoid of activity
